Laboratory results as given in PMC7735735, “Store-Operated Calcium Entry as a Therapeutic Target in Acute Pancreatitis: Discovery and Development of Drug-Like SOCE Inhibitors” (Journal of Medicinal Chemistry, 2020).

System: HEK cells
Experiment: HEK cell viability after 72 h at 50 μM with or without uridine (involvement of DHODH)

SMILES: C/C(O)=C(\C#N)C(=O)Nc1ccc(C(F)(F)F)cc1 [teriflunomide]
- cell viability / cytotoxicity at 50 μM, 72 h: cytotoxic
- reversal of cytotoxicity by uridine (uridine 100 μM): reverted by uridine addition
